Compound activity: PubChem BioAssay, Broad Institute
RAD52 anneal inh = RAD52 (human) annealing inhibition | 360,000 compounds, 0.46% hits | AID 651710 | recombinant RAD52 DNA annealing, FRET fluorescence | inhibition, % at 18.7 µM | P43351;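 active = every replicate showing at least 50% inhibition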
RAD54 inh = inhibitors of human RAD54 branch migration | Q92698 | RAD54 Holliday junction branch migration, FAM/BHQ fluorescence | inhibition, % at 10.4 µM | 360,000 compounds, 0.14% hits | AID 602329;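 active = mean normalized replicate activity at least 40 and at least half of replicates scoring 40 or more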;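 also: 0% = median of neutral control wells and 100% = median of positive control wells; inhibitors cause a drop in the FAM fluorescence signal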
SIRT5 block = blocks human SIRT5 desuccinylation of peptide | inhibition, % at 15 µM | Q9NXA8 | 330,000 compounds, 1.1% hits | Purified SirT5, succinyl-peptide AMC, trypsin-coupled fluorescence; in the data active = inhibition above about 15%
UUG fidelity = alters start codon recognition fidelity in yeast | S. cerevisiae UUG-firefly luciferase reporter, luminescence/redox ratio | activity score, % at 18.7 µM | 350,000 compounds, 0.13% hits | AID 602363;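 active = replicate mean at a twofold rise or more, about +100% in these data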;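 note: firefly luciferase made from a UUG start codon reports start codon fidelity; reporter light over untreated wells divided by growth signal over untreated wells; some hits fall short of that in this replicate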
MLL AF4-AF9 inh = MLL-AF4/AF9 protein interaction inhibition; AlphaScreen, biotin-AF4 peptide binding to FLAG-AF9; 350,000 compounds, 0.47% hits; inhibition, % at 10 µM; P42568;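 active = every replicate reaching a set inhibition limit, whatever the replicate mean, cut at about 25% in these data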;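 also: 0% = plate neutral control median and 100% = total signal loss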
E-selectin induc = induces E-selectin expression in human endothelial cells; HUVEC E-selectin immunofluorescence imaging; normalized: neutral wells 0, TNF-alpha wells 100; activation, % at 7.58 µM; 260,000 compounds, 0.37% hits;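 active = mean E-selectin-positive cell signal at least 10% of the positive control, reached in at least 60% of replicates, without over 20% cell loss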
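Assay system: HUVEC, human umbilical vein endothelial cells / Amount: 3,000 HUVEC/well / Controls: TNF-alpha positive control, DMSO neutral control / Compound dosing: single concentration / Medium: EGM-2 over gelatin coat / Evaluation: percent E-selectin-positive cells / Signal: immunofluorescence imaging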
Starred values were filed as active, the others as inactive; nt = no result given. Compounds with a hit are over-represented: about 1.8% of the library has one in this group of screens.

Every second line gives: RAD52 anneal inh | RAD54 inh | SIRT5 block | UUG fidelity | MLL AF4-AF9 inh | E-selectin induc
> COc1ccc(S(=O)(=O)N(C)C[C@H]2OCCCC[C@H](C)Oc3ccc(NS(=O)(=O)c4ccc(Cl)cc4)cc3C(=O)N([C@@H](C)CO)C[C@H]2C)cc1
  nt | nt | 17* | nt | nt | 0
> COc1ccc(S(=O)(=O)N(C)C[C@H]2OCCCC[C@@H](C)Oc3ccc(NS(=O)(=O)c4ccc(Cl)cc4)cc3C(=O)N([C@H](C)CO)C[C@H]2C)cc1
  10 | nt | 23* | nt | 0 | 0
> COc1ccc(S(=O)(=O)Nc2ccc3c(c2)C(=O)N([C@H](C)CO)C[C@H](C)[C@H](CN(C)S(=O)(=O)c2ccc(Cl)cc2)OCCCC[C@@H](C)O3)cc1
  -4 | 7 | 10 | 5 | -3 | 0
> COc1ccc(S(=O)(=O)Nc2ccc3c(c2)C(=O)N([C@H](C)CO)C[C@@H](C)[C@H](CN(C)S(=O)(=O)c2ccc(Cl)cc2)OCCCC[C@H](C)O3)cc1
  -11 | -9 | 20* | 1 | 0 | 0
> CO[C@H](CN(C)Cc1cc(F)ccc1F)[C@@H](C)CN(C(=O)Nc1ccc(F)cc1)[C@@H](C)CO
  2 | -4 | -2 | nt | -1 | 0
> C[C@H]1CN([C@@H](C)CO)C(=O)c2cc(NC(=O)Nc3ccccc3)ccc2O[C@H]1CN(C)S(=O)(=O)c1cccs1
  -15 | 4 | 0 | -1 | 2 | 0
> COc1ccc(S(=O)(=O)N(C)C[C@@H]2OCCCC[C@@H](C)Oc3ccc(NS(=O)(=O)c4ccc(Cl)cc4)cc3C(=O)N([C@@H](C)CO)C[C@H]2C)cc1
  6 | nt | 17* | nt | -4 | 0
> CC(C(=O)Nc1ccc(F)c(F)c1F)N(C)Cc1cccs1 (stereo unspecified)
  -11 | -4 | 16* | -11 | -1 | 0
> COc1ccc(CNC(=O)C[C@H]2C[C@@H]3c4cc(NC(=O)CC5CC5)ccc4O[C@@H]3[C@@H](CO)O2)cc1
  nt | -15 | nt | -8 | nt | 0
> C[C@H](CO)N1C[C@H](C)[C@H](CN(C)S(=O)(=O)c2ccc(Cl)cc2)Oc2c(NC(=O)C3CC3)cccc2C1=O
  -1 | -2 | -2 | -25 | -1 | 0
> O=C(CCS(=O)(=O)Cc1ccccc1F)NCCc1ccc(Cl)cc1
  -15 | -10 | 17* | -6 | 0 | nt
> COc1ccc(S(=O)(=O)Nc2ccc3c(c2)CC(=O)N([C@@H](C)CO)C[C@H](C)[C@@H](CN(C)C(=O)NC2CCCCC2)O3)cc1
  -3 | 1 | 0 | -6 | 0 | 79*
> C[C@H](CO)N1C[C@H](C)[C@@H](CN(C)C(=O)NC2CCCCC2)Oc2ccc(NS(=O)(=O)c3ccc(F)cc3)cc2CC1=O
  7 | 12 | -2 | 17 | -1 | 0
> C[C@@H]1CN([C@@H](C)CO)C(=O)Cc2cc(NS(=O)(=O)c3ccc(F)cc3)ccc2O[C@@H]1CN(C)C(=O)NC1CCCCC1
  2 | 6 | 19* | 18 | -1 | 0
> C[C@@H]1CN([C@H](C)CO)C(=O)Cc2cc(NS(=O)(=O)c3ccc(F)cc3)ccc2O[C@@H]1CN(C)C(=O)NC1CCCCC1
  11 | 8 | -4 | 16 | -1 | 0
> COc1ccc(S(=O)(=O)Nc2ccc3c(c2)CC(=O)N([C@H](C)CO)C[C@@H](C)[C@@H](CN(C)C(=O)NC2CCCCC2)O3)cc1
  1 | -5 | 4 | 5 | -2 | 55*
> COc1ccc(NC(=O)N(C)C[C@H]2OCCCC[C@H](C)Oc3ccc(NC(=O)c4ccccc4)cc3C(=O)N([C@H](C)CO)C[C@@H]2C)cc1
  -58 | 5 | 2 | 8 | -1 | 0
> CN(C)C(=O)C[C@@H]1C[C@@H]2c3cc(NC(=O)CC4CC4)ccc3O[C@@H]2[C@H](CO)O1
  5 | 15 | -4 | nt | -4 | 0
> C[C@@H]1CN([C@H](C)CO)C(=O)c2cc(-c3ccc(F)cc3)cnc2O[C@H]1CN(C)C(=O)Cc1ccccn1
  -10 | -12 | 23* | nt | -1 | -2
> C[C@H]1CN([C@@H](C)CO)C(=O)c2cc(-c3ccncc3)cnc2O[C@H]1CN(C)C(=O)c1ccncc1
  -1 | 4 | 16* | -13 | -6 | 1
> C[C@@H]1CN([C@H](C)CO)C(=O)c2cc(-c3ccccc3)cnc2O[C@@H]1CN(C)C(=O)c1cccnc1
  18 | nt | 16* | nt | -3 | 0
> O=C(C[C@H]1CC[C@H]2[C@@H](COC[C@@H](O)CN2C(=O)Nc2cccc(F)c2)O1)NCc1ccccc1Cl
  nt | 2 | nt | nt | nt | 0
> Cc1ccc(-c2ccc3c(c2)O[C@@H](CN(C)C(=O)Nc2ccccc2)[C@@H](C)CN([C@@H](C)CO)S3(=O)=O)cc1
  -10 | 12 | 7 | -11 | 4 | 1
> COCCNC(=O)C[C@@H]1C[C@H]2c3cc(NC(=O)c4cccnc4)ccc3O[C@H]2[C@H](CO)O1
  -5 | 4 | -3 | -7 | -1 | 0
> Cn1ccnc1C(OC(=O)c1ccc(Cl)cc1)C(F)(F)F (stereo unspecified)
  -7 | 9 | -2 | -4 | 4 | 0
> Cn1ccnc1C(OC(=O)c1ccccc1)C(F)(F)F (stereo unspecified)
  -5 | -2 | 15* | -5 | -1 | 0
> C[C@@H]1CCCCO[C@H](CN(C)Cc2ccc(C(=O)O)cc2)[C@@H](C)CN([C@H](C)CO)C(=O)c2cc(NC(=O)c3ccncc3)ccc2O1
  48 | 6 | 2 | -30 | -2 | 0
> C[C@@H]1CN([C@@H](C)CO)C(=O)c2cc(NC(=O)c3ccncc3)ccc2O[C@@H](C)CCCCO[C@H]1CN(C)Cc1ccc(C(=O)O)cc1
  96* | 1 | 1 | 2 | -3 | 0
> C[C@@H]1CCCCO[C@H](CN(C)Cc2ccc(C(=O)O)cc2)[C@H](C)CN([C@H](C)CO)C(=O)c2cc(NC(=O)c3ccncc3)ccc2O1
  103* | 5 | -3 | -8 | -3 | 0
> C[C@@H]1CCCCO[C@@H](CN(C)Cc2ccncc2)[C@@H](C)CN([C@H](C)CO)C(=O)c2cc(NC(=O)c3ccncc3)ccc2O1
  8 | 6 | 4 | nt | -1 | 1
> C[C@@H]1CCCCO[C@@H](CN(C)Cc2ccc(C(=O)O)cc2)[C@@H](C)CN([C@@H](C)CO)C(=O)c2cc(NC(=O)c3ccncc3)ccc2O1
  105* | 4 | 0 | 7 | -3 | 0
> C[C@@H]1CN([C@@H](C)CO)C(=O)c2cc(NC(=O)c3ccncc3)ccc2O[C@@H](C)CCCCO[C@H]1CN(C)Cc1ccncc1
  -15 | 4 | 2 | nt | -3 | 0
> C[C@@H]1CN([C@@H](C)CO)C(=O)c2cc(NC(=O)c3ccncc3)ccc2O[C@@H](C)CCCCO[C@@H]1CN(C)Cc1ccc(C(=O)O)cc1
  59* | 3 | -3 | 0 | -3 | 0

Record cards, from the list above. Screens in order: RAD52 anneal inh | RAD54 inh | SIRT5 block | UUG fidelity | MLL AF4-AF9 inh | E-selectin induc
Cc1ccc(-c2ccc3c(c2)O[C@@H](CN(C)C(=O)Nc2ccccc2)[C@@H](C)CN([C@@H](C)CO)S3(=O)=O)cc1 is listed with -10 | 12 | 7 | -11 | 4 | 1
C[C@@H]1CN([C@@H](C)CO)C(=O)c2cc(NC(=O)c3ccncc3)ccc2O[C@@H](C)CCCCO[C@H]1CN(C)Cc1ccc(C(=O)O)cc1 is listed with 96* | 1 | 1 | 2 | -3 | 0
CN(C)C(=O)C[C@@H]1C[C@@H]2c3cc(NC(=O)CC4CC4)ccc3O[C@@H]2[C@H](CO)O1 is listed with 5 | 15 | -4 | nt | -4 | 0
